From patent US7476763B2, “Oxo-substituted cyclohexyl-1,4-diamine compounds” (dated 2009) come the findings set out here.

Sequences of proteins named here, by UniProt entry; tags and fusion partners are left off. A change or cut given only in a name is not applied to a line headed by its entry.
UniProt P35372, whole entry, looked up: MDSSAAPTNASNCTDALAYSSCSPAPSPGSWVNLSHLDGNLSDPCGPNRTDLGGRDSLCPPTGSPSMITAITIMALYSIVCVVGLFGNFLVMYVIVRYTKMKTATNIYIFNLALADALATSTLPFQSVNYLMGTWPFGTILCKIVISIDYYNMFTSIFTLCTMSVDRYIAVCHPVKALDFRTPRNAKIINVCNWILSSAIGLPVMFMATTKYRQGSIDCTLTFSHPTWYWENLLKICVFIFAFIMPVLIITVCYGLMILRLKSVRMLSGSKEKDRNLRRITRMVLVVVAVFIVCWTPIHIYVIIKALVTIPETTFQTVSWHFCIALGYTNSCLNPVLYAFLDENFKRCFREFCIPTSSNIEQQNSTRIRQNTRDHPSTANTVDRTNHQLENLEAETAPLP
UniProt P41146: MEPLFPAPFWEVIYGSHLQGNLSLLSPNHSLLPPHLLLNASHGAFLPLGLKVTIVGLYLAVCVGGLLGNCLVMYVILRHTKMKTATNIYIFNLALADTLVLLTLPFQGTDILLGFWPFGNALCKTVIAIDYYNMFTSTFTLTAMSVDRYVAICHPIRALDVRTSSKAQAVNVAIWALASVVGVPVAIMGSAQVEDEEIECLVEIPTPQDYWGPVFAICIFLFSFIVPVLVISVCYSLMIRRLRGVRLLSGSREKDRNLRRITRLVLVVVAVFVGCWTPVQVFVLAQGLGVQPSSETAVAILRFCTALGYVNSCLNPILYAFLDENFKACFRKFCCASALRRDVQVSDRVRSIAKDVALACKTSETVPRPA

One assay has as its target human μ-opiate receptor (Homo sapiens, UniProt P35372). Kind of assay: Measurement of μ-binding ([3H]-naloxone displacement, CHO-K1 membrane preparation). The following applies: 1 μM test substance; displacement of [3H]-naloxone.
Another assay concerns the target ORL1 receptor (Homo sapiens, UniProt P41146). Kind of assay: Measurement of ORL1 binding (3H-nociceptin/orphanin FQ, membranes of recombinant CHO-ORL1 cells). The settings on record: 1 μM test substance; 0.5 nM 3H-nociceptin/orphanin FQ.

On to `Cc1cccc(CC2(N(C)C)CCC(NC(=O)C(C)c3cccc(C(=O)c4ccccc4)c3)CC2)c1` (centres unmarked), for which the “μ-binding [1 μM], % inhibition” value on human μ-opiate receptor worked out at 79%.

With `Cc1ccccc1CC1(N(C)C)CCC(NC(=O)C(C)c2cccc(C(=O)c3ccccc3)c2)CC1` (centres unmarked), on human μ-opiate receptor, the “μ-binding [1 μM], % inhibition” value turned out to be 78%.

For `CN(C)C1(Cc2cccc(Cl)c2)CCC(NC(=O)CCCC(=O)c2ccccc2)CC1` (centres unmarked), the “μ-binding [1 μM], % inhibition” value at human μ-opiate receptor was 65%.

As for `Cc1ccccc1CC1(N(C)C)CCC(NC(=O)CCC(=O)c2ccccc2)CC1` (centres unmarked), the “μ-binding [1 μM], % inhibition” value at human μ-opiate receptor was found to be 61%.

Turning to `CN(C)C1(Cc2ccc(Cl)cc2)CCC(NC(=O)CCCC(=O)c2ccccc2)CC1` (centres unmarked), on human μ-opiate receptor, the “μ-binding [1 μM], % inhibition” value was found to be 48%.

With `CNC1(NC)C(CC(=O)NC2CCC(Cc3ccccc3)(N(C)C)CC2)CC1C(C)=O` (centres unmarked), the “μ-binding [1 μM], % inhibition” value on human μ-opiate receptor was found to be 41%.

For the molecule `Cc1ccc(CC2(N(C)C)CCC(NC(=O)CCCC(=O)c3ccccc3)CC2)cc1` (centres unmarked), at human μ-opiate receptor, the “μ-binding [1 μM], % inhibition” value was determined as 56%.

Turning to `CN(C)C1(Cc2ccccc2Cl)CCC(NC(=O)CCC(=O)c2ccc(Cl)cc2)CC1` (centres unmarked), the “μ-binding [1 μM], % inhibition” value on human μ-opiate receptor came out at 72%.

In the case of `O=C(CCCC(=O)c1ccccc1)NC1CCC(c2ccccc2)(N2CCCCC2)CC1` (centres unmarked), at human μ-opiate receptor, the “μ-binding [1 μM], % inhibition” value is recorded as 59%.

As to “4-(4-chloro-phenyl)-4-dimethylamino-4-(4-fluoro-benzyl)-cyclohexyl]-4-oxo-butyramide”, the “μ-binding [1 μM], % inhibition” value at human μ-opiate receptor is reported as 55%.

For “5-oxo-5-phenyl-valericacid 4-dimethylamino-4-phenyl-cyclohexyl)-amide”, the “μ-binding [1 μM], % inhibition” value at human μ-opiate receptor is recorded as 100%. For the same molecule, the “ORL 1-binding [1 μM], % inhibition” value at ORL1 receptor came to 100%.

As for “4-(4-chloro-phenyl)-N-[4-dimethylamino-4-(2-methyl-benzyl)-cyclohexyl-4-oxobutyramide”, at human μ-opiate receptor, the “μ-binding [1 μM], % inhibition” value turned out to be 53%.

With `CN(C)C1(c2cccs2)CCC(NC(=O)CCC(=O)c2ccc(F)cc2)CC1` (centres unmarked), on human μ-opiate receptor, the “μ-binding [1 μM], % inhibition” value amounted to 100%. On ORL1 receptor, the “ORL 1-binding [1 μM], % inhibition” value is given as 91%.

As to `CN(C)C1(CCc2ccccc2)CCC(NC(=O)C(=O)c2c[nH]c3ccccc23)CC1` (centres unmarked), the “μ-binding [1 μM], % inhibition” value on human μ-opiate receptor was determined as 55%.

For the molecule `CN(C)C1(Cc2ccccc2F)CCC(NC(=O)C(=O)c2c[nH]c3ccccc23)CC1` (centres unmarked), the “μ-binding [1 μM], % inhibition” value on human μ-opiate receptor is reported as 57%.

`CC(=O)C1CC(CC(=O)NC2CCC(Cc3cccc(Cl)c3)(N(C)C)CC2)C1(C)C` (centres unmarked): on human μ-opiate receptor, the “μ-binding [1 μM], % inhibition” value is 55%.

Take `CNC1(NC)C(CC(=O)NC2CCC(Cc3ccccc3)(N3CCCCC3)CC2)CC1C(C)=O` (centres unmarked): the “μ-binding [1 μM], % inhibition” value on human μ-opiate receptor turned out to be 54%.

With `CN(C)C1(c2cccc(F)c2)CCC(NC(=O)C(=O)c2c[nH]c3ccccc23)CC1` (centres unmarked), the “μ-binding [1 μM], % inhibition” value at human μ-opiate receptor is recorded as 79%. Besides, the “ORL 1-binding [1 μM], % inhibition” value on ORL1 receptor is 78%.

On to `CC(=O)C1CC(CC(=O)NC2CCC(Cc3ccc(C)cc3)(N(C)C)CC2)C1(C)C` (centres unmarked), for which the “μ-binding [1 μM], % inhibition” value at human μ-opiate receptor came out at 58%.

For the molecule `CN(C)C1(Cc2cccc(F)c2)CCC(NC(=O)CCC(=O)c2ccc(F)cc2)CC1` (centres unmarked), the “μ-binding [1 μM], % inhibition” value at human μ-opiate receptor was 42%.

`CN(C)C1(CCc2ccccc2)CCC(NC(=O)CCCC(=O)c2ccccc2)CC1` (centres unmarked): the “μ-binding [1 μM], % inhibition” value at human μ-opiate receptor was determined as 88%.

Turning to `O=C(CCC(=O)c1ccc(F)cc1)NC1CCC(c2ccccc2)(N2CCCCC2)CC1` (centres unmarked), the “μ-binding [1 μM], % inhibition” value on human μ-opiate receptor stood at 68%.

In the case of `CN(C)C1(Cc2ccc(F)cc2)CCC(NC(=O)CCC(=O)c2ccccc2)CC1` (centres unmarked), at human μ-opiate receptor, the “μ-binding [1 μM], % inhibition” value was determined as 54%.

With `CNC1(NC)C(CC(=O)NC2CCC(Cc3ccccc3F)(N(C)C)CC2)CC1C(C)=O` (centres unmarked), the “μ-binding [1 μM], % inhibition” value on human μ-opiate receptor worked out at 79%.

Turning to `CN(C)C1(Cc2cccc(Cl)c2)CCC(NC(=O)CCC(=O)c2ccc(F)cc2)CC1` (centres unmarked), the “μ-binding [1 μM], % inhibition” value at human μ-opiate receptor came to 54%.

`CNC1(NC)C(CC(=O)NC2CCC(Cc3cccc(C)c3)(N(C)C)CC2)CC1C(C)=O` (centres unmarked): at human μ-opiate receptor, the “μ-binding [1 μM], % inhibition” value came to 68%.

`Cc1ccc(CC2(N(C)C)CCC(NC(=O)CCC(=O)c3ccc(Cl)cc3)CC2)cc1` (centres unmarked): the “μ-binding [1 μM], % inhibition” value on human μ-opiate receptor is given as 42%.

With “2-(3-benzofuryl-phenyl)-N-(4-dimethylamino-4-phenethyl-cyclohexyl)-propionamide”, on human μ-opiate receptor, the “μ-binding [1 μM], % inhibition” value is 91%.

Consider `CC(C(=O)NC1CCC(Cc2cccc(Cl)c2)(N(C)C)CC1)c1cccc(C(=O)c2ccccc2)c1` (centres unmarked), for which the “μ-binding [1 μM], % inhibition” value at human μ-opiate receptor turned out to be 68%.

As to `O=C(CCCC(=O)c1ccccc1)NC1CCC(c2ccccc2)(N2CCOCC2)CC1` (centres unmarked), the “μ-binding [1 μM], % inhibition” value at human μ-opiate receptor was determined as 41%.

Turning to “4-(4-chloro-phenyl)-4-dimethylamino-4-(3-fluoro-benzyl)-cyclohexyl]-4-oxo-butyramide”, at human μ-opiate receptor, the “μ-binding [1 μM], % inhibition” value is reported as 42%.

`CN(C)C1(CCc2ccccc2)CCC(NC(=O)CCC(=O)c2ccccc2)CC1` (centres unmarked): the “μ-binding [1 μM], % inhibition” value on human μ-opiate receptor turned out to be 61%.

On to `CC(C(=O)NC1CCC(Cc2ccccc2F)(N(C)C)CC1)c1cccc(C(=O)c2ccccc2)c1` (centres unmarked), for which the “μ-binding [1 μM], % inhibition” value at human μ-opiate receptor is given as 84%.

As for `CN(C)C1(Cc2ccccc2)CCC(NC(=O)CCC(=O)c2ccc(Cl)cc2)CC1` (centres unmarked), the “μ-binding [1 μM], % inhibition” value on human μ-opiate receptor was found to be 50%.

In the case of `CN(C)C1(Cc2ccccc2F)CCC(NC(=O)CCC(=O)c2ccc(F)cc2)CC1` (centres unmarked), at human μ-opiate receptor, the “μ-binding [1 μM], % inhibition” value amounted to 62%.

In the case of `CNC1(NC)C(CC(=O)NC2CCC(Cc3ccc(Cl)cc3)(N(C)C)CC2)CC1C(C)=O` (centres unmarked), the “μ-binding [1 μM], % inhibition” value at human μ-opiate receptor is 55%.

On to `CN(C)C1(Cc2ccccc2F)CCC(NC(=O)CCCC(=O)c2ccccc2)CC1` (centres unmarked), for which the “μ-binding [1 μM], % inhibition” value at human μ-opiate receptor is 80%.

Turning to `Cc1ccc(CC2(N(C)C)CCC(NC(=O)CCC(=O)c3ccccc3)CC2)cc1` (centres unmarked), the “μ-binding [1 μM], % inhibition” value at human μ-opiate receptor worked out at 50%.

Take `CN(C)C1(Cc2ccccc2Cl)CCC(NC(=O)CCC(=O)c2ccccc2)CC1` (centres unmarked): the “μ-binding [1 μM], % inhibition” value on human μ-opiate receptor came to 60%.

Regarding “4-oxo-4-phenyl-(4-phenyl-4-piperidin-1-yl-cyclohexyl)-butyramide”, the “μ-binding [1 μM], % inhibition” value on human μ-opiate receptor is 71%.

Regarding `Cc1ccc(CC2(N(C)C)CCC(NC(=O)C(C)c3cccc(C(=O)c4ccccc4)c3)CC2)cc1` (centres unmarked), the “μ-binding [1 μM], % inhibition” value on human μ-opiate receptor was 62%.

On to `CN(C)C1(Cc2ccccc2)CCC(NC(=O)CCC(=O)c2ccc(F)cc2)CC1` (centres unmarked), for which the “μ-binding [1 μM], % inhibition” value on human μ-opiate receptor is 58%.

`Cc1cccc(CC2(N(C)C)CCC(NC(=O)CCC(=O)c3ccccc3)CC2)c1` (centres unmarked): on human μ-opiate receptor, the “μ-binding [1 μM], % inhibition” value turned out to be 60%.

As to `CC(C(=O)NC1CCC(Cc2ccccc2)(N(C)C)CC1)c1cccc(C(=O)c2ccccc2)c1` (centres unmarked), the “μ-binding [1 μM], % inhibition” value on human μ-opiate receptor came out at 80%.
